The record followed here is ChEMBL document CHEMBL3244195, “Antidotes or organophosphate poisoning. 2. Thiadiazole-5-carboxaldoximes” (1979).

The test system of test [1] is Rattus norvegicus. Description: Reduction of paraoxon-induced hypothermia in rat at 150 mg/kg, ip administered 1 hr after paraoxon-challenge measured after 3 to 4 hrs relative to control. The following applies: route intraperitoneal. The arrangement: scale not given: the % may be the effect or the level left.
For test [2], the system named is Rattus norvegicus. Description: Reduction of diisopropyl fluorophosphate-induced hypothermia in rat at 150 mg/kg, ip administered 1 hr after diisopropyl fluorophosphate-challenge measured after 3 to 4 hrs relative to control. As to conditions: route intraperitoneal. The arrangement: scale not given: the % may be the effect or the level left.
Test [3] relates to Mus musculus. The test is described as follows: Antidotal effect in hybrid CC57 mouse assessed as protection against sarin-induced poisoning by measuring sarin LD50 at 47.2 mg/kg, ip dosed 1.5 mins after sarin challenge and measured after 24 hrs co-treated with 37.5 mg/kg, ip atropine sulfate (reference value: 229 ug/kg).
Test [4] deals with Rattus norvegicus. The test is described as follows: Reduction of paraoxon-induced hypothermia in rat at 160 mg/kg, ip administered 1 hr after paraoxon-challenge measured after 3 to 4 hrs relative to control. Set-up: scale not given: the % may be the effect or the level left. As to conditions: route intraperitoneal.
The subject of test [5] is Rattus norvegicus. The test is described as follows: Reduction of diisopropyl fluorophosphate-induced hypothermia in rat at 160 mg/kg, ip administered 1 hr after diisopropyl fluorophosphate-challenge measured after 3 to 4 hrs relative to control. Set-up: scale not given: the % may be the effect or the level left. The following applies: route intraperitoneal.
Test [6] concerns Rattus norvegicus. The test is described as follows: Reduction of paraoxon-induced hypothermia in rat at 250 mg/kg, ip administered 1 hr after paraoxon-challenge measured after 3 to 4 hrs relative to control. Set-up: scale not given: the % may be the effect or the level left. As to conditions: route intraperitoneal.
For test [7], the system named is Rattus norvegicus. Description: Reduction of diisopropyl fluorophosphate-induced hypothermia in rat at 250 mg/kg, ip administered 1 hr after diisopropyl fluorophosphate-challenge measured after 3 to 4 hrs relative to control. The following applies: route intraperitoneal. The arrangement: scale not given: the % may be the effect or the level left.
Test [8] deals with Mus musculus. The test is described as follows: Antidotal effect in hybrid CC57 mouse assessed as therapeutic ratio for protection against sarin-induced poisoning by measuring sarin LD50 at 250 mg/kg, ip dosed 1.5 mins after sarin challenge and measured after 24 hrs co-treated with 37.5 mg/kg, ip atropine sulfate relative to sarin alone treated mouse.
Test [9] deals with Rattus norvegicus. Description: Reduction of paraoxon-induced hypothermia in rat at 80 mg/kg, ip administered 1 hr after paraoxon-challenge measured after 3 to 4 hrs relative to control. The following applies: route intraperitoneal. Set-up: scale not given: the % may be the effect or the level left.
Test [10] concerns Rattus norvegicus. The test is described as follows: Reduction of diisopropyl fluorophosphate-induced hypothermia in rat at 80 mg/kg, ip administered 1 hr after diisopropyl fluorophosphate-challenge measured after 3 to 4 hrs relative to control. Set-up: scale not given: the % may be the effect or the level left. As to conditions: route intraperitoneal.
Test [11] has as its system Mus musculus. The test is described as follows: Antidotal effect in hybrid CC57 mouse assessed as protection against sarin-induced poisoning by measuring sarin approximate lethal dose at 100 mg/kg, ip dosed 1.5 mins after sarin challenge and measured after 24 hrs co-treated with 37.5 mg/kg, ip atropine sulfate (reference value: 460 ug/kg).
The test system of test [12] is Rattus norvegicus. Description: Increase in soman-induced hypothermia in ip dosed rat administered 1 hr after soman-challenge (reference value: 2.47 +/- 0.15 degC).
In test [13] the test system is Rattus norvegicus. Description: Antidotal effect in WAG rat assessed as protection against 5 X LD50 paraoxon-induced poisoning measured as time required to postpone onset of symptoms at 100 mg/kg, ip (reference value: 2.9 +/- 0.5 mins). The following applies: route intraperitoneal.

Regarding `CS(=O)(=O)[O-].C[n+]1ccccc1C=NO`, the Activity in the test with Rattus norvegicus [1] turned out to be 23%; in the test with Rattus norvegicus [2], 0%. For the same compound, the LD50 with Mus musculus [3] was 0.762 mg/kg.

As for `CCN(CC)CCCOC(=O)/C=N\O`, the Activity in the test on Rattus norvegicus [4] amounted to 83%; with Rattus norvegicus [5] it was 47%.

Turning to `CC(=O)/C=N/O`, in the test with Rattus norvegicus [2], the Activity came to 40%.

For `Cc1nsc(/C=N/[O-])n1.[Na+]`, the Activity in the test with Rattus norvegicus [6] is 60%; in the test with Rattus norvegicus [7], 23%. Also, the Ratio in the test with Mus musculus [8] is 5.6.

For `O/N=C/c1cc[n+](COC[n+]2ccc(/C=N/O)cc2)cc1.[Cl-].[Cl-]`, the figures for the Activity with Rattus norvegicus [9], with Rattus norvegicus [10] and in the test on Rattus norvegicus [2] were 30%, 40% and 60%, respectively.

As to `[Na+].[O-]/N=C/c1cnns1`, the LD with Mus musculus [11] stood at 1.5 mg/kg. Besides, the figures for the Activity in the test on Rattus norvegicus [6] and in the test with Rattus norvegicus [7] were 63% and 53%, respectively. In the test with Rattus norvegicus [12], this compound displayed a T of 3.05 °C. Also, the Ratio with Mus musculus [8] came out at 5. Also, the Time in the test with Rattus norvegicus [13] is 3.7 min.

For `Cc1nnc(/C=N/[O-])s1.[Na+]`, the Activity in the test on Rattus norvegicus [6] and in the test with Rattus norvegicus [7] was < 10% in each case. Further, the Ratio in the test on Mus musculus [8] amounted to 4.2.

What is called LD50 is the dose at which mortality reaches 50%.
